The target of the assay is human LPAR1 (Homo sapiens, UniProt Q92633). As to the kind of experiment: Arrestin assay (Arrestin Reporter EDG2-bla U2OS), inhibition of LPA-stimulated signal. The note with it: read-out: Arrestin Reporter EDG2-bla U2OS Human Merged IC50; TangoEDG2-bla U2OS cells expressing human LPAR1; 0.25 μM LPA. Here is the method: The inhibitory activity of compounds 15, 62, 77, 84 and 169 against LPAR1 was measured using an Arrestin assay in U2OS cells expressing human LPAR1.
FreeStyle media was warmed in a 37° C. water bath. Cryo-preserved vial(s) of TangoEDG2-bla U2OS cells were rapidly thawed in a 37° C. water bath. The thawed cells were added to FreeStyle media and cells were pelleted at 300×g for 5 minutes. The supernatant was aspirated, and cells were resuspended in FreeStyle media. Cell density was adjusted to 0.25×10^6 cells/mL. Cells (1×10^4 in 40 μL) were added to each well of Greiner 384 well black cell plate(s). Cell plate(s) were placed in a humidified 37° C./5% CO2 incubator for 18-20 hours. Dilutions of test compound were prepared at 6× final concentration; 12-point, 3-fold dilutions using HH Buffer (1×HBSS plus 20 mM HEPES). The 6× test compound was then added to the cell plate(s) at 10 μL/well. […] Plate(s) were read on an Envision Plate Reader (Perkin Elmer) to read fluorescence; excitation at 409 nm with emission at 460 nm and 530 nm. […]
Additional compounds of the present disclosure were synthesized in a manner similar to the compounds described above and understood by a person of ordinary skill in the art. The inhibitory activity of the compounds of the present disclosure against LPAR1 was measured using the above-referenced Arrestin Assay protocol.

Protein sequences, listed by entry. Tags and fused reporters are not part of them.
UniProt Q92633, whole entry: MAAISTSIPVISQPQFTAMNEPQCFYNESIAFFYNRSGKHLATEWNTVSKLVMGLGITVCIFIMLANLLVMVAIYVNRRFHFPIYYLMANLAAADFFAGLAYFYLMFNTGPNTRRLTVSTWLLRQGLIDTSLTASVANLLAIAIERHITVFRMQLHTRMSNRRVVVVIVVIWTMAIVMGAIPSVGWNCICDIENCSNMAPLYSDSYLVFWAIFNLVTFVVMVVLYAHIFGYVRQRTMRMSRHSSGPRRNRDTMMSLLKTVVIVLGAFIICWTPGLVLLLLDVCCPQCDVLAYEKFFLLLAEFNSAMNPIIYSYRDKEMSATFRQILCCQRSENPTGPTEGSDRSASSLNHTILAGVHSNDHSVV

The structures appear in SMILES notation.

Broadly, the IC50 is the midpoint of a concentration-inhibition curve. Turning to `CO[C@H]1CC[C@@H]([C@@H](CN2CCC(C(=O)Nc3ccc(Cl)cc3OC(F)F)(n3nccc3C(C)C)CC2)C(=O)O)CC1` (single isomer, unassigned), the IC50 came out at 55.1 nM.
